Test results from the NIST ThermoML archive (doi:10.1021/je800446c).
± gives the expanded uncertainty stated by the source.

Details: 298.15 K; 101.33 kPa; Liquid; Pycnometric method

mass density: 764.23 ± 0.69 kg/m3
SMILES: CCCCOCCCC [dibutyl ether]
